Common to all, as to experiment: Virus-cell-based antiviral assay (CPE reduction, MTS)
One experiment relates to CVA21 (strain Coe). The settings on record: BGM.
For the next experiment, the system named is CVA16 (strain G-10). The arrangement: species or system coxsackievirus A16. The settings on record: Enterovirus A, CVA16, HeLa H1.
The subject of experiment [1] is EV71-B5 (strain TW/96016/08 genogroup B5). Also noted: species or system enterovirus 71. The settings on record: Enterovirus A, EV71, RD.
In experiment [2] the test system is HRV14 (human rhinovirus type 14). The settings on record: Human rhinovirus sp., HRV14, HeLa H1.
A further experiment deals with CVA9 (strain Bozek). The arrangement: species or system Coxsackie A9. The following applies: Enterovirus B, CVA9, BGM.
Experiment [3] relates to ECHO11 (echovirus 11 strain Gregory). The following applies: Enterovirus B, BGM.
The test system of another experiment is CVB4 (strain E2 Edwards). The following applies: Enterovirus B, CVB4, BGM.
The test system of experiment [4] is EV71-B2 (strain 11316 genogroup B2). Also noted: species or system enterovirus 71. The following applies: Enterovirus A, EV71, RD.
For experiment [5], the system named is HRV02 (human rhinovirus type 2). The following applies: Human rhinovirus sp., HRV02, HeLa H1.
The subject of the next experiment is CVB3 (strain Nancy). Also noted: species or system Coxsackievirus B3. The following applies: Enterovirus B, CVB3, BGM.

Regarding `CCON=Cc1ccc(OCCC(C)CCN2CCN(c3ccnc(N)c3)C2=O)cc1` (stereo not shown) [NLD], the EC50 (commonly the concentration giving half of the maximal effect) in the experiment with CVA21 (strain Coe) is 13 ± 8 nM; in the experiment with CVA16 (strain G-10) it was 0.12 ± 0.04 nM; in experiment [1], 1.4 ± 0.3 nM; in experiment [2], above 5000 nM; in the experiment with CVA9 (strain Bozek), 6000 ± 1000 nM; in [3], 1300 ± 200 nM. The EC50 in the experiment on CVB4 (strain E2 Edwards) was above 17000 nM; in experiment [4], 0.53 ± 0.05 nM; in experiment [5] it was 2400 nM; in the experiment with CVB3 (strain Nancy) it was 2600 ± 200 nM.

The record behind these values is article PMC4613828 (PLoS Pathogens, 2015).
